Values quoted from earlier work as cited in patent US20250262209A1, “TREATMENT OF GASTROINTESTINAL DISEASES” (Aclipse Two, Inc., priority 2022, published 2025).

Chains of the proteins cited; added tags and fusions are not shown.
UniProt Q07869, whole entry, species assumed: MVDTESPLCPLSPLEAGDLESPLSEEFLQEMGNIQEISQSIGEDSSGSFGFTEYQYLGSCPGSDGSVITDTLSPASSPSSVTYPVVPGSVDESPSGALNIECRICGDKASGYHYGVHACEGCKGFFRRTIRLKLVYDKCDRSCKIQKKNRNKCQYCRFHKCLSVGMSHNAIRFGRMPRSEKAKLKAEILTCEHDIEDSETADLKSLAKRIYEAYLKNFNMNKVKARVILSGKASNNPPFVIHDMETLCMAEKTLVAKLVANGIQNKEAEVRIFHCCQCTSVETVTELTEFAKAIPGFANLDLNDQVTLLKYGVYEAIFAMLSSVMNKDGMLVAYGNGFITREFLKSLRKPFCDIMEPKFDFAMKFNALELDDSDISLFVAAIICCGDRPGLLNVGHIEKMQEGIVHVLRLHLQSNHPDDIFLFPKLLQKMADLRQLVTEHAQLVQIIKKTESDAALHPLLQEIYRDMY

Target: PPARα (Homo sapiens, UniProt Q07869)
Details: background statement; cited from earlier work

CN(CCOc1ccc(CC2SC(=O)NC2=O)cc1)c1ccccn1 (racemic) [rosiglitazone, (RS)-5-[4-(2-[methyl(pyridin-2-yl)amino]ethoxy)benzyl]thiazolidine-2,4-dione]
PPARα-binding action: no PPARα-binding action
